Reference: patent publication US9175077B2, “Nucleic acids encoding biologically active polypeptides derived from a novel early stage pregnancy factor designated maternin (MA)” (NOBEL BIOSCIENCES LLC, priority 1999, dated 2015)
Like-named read-outs stand apart in the source and are kept apart here.

How the values were obtained:
[1] = test system: hematopoietic progenitors (CFU-GEMM, BFU-e, CFU-GM, T-CFC); test: Hematopoietic colony formation assays; format: cell-based, human
From the text: Hematopoietic colony formation assays with bone marrow or cord blood of normal human volunteers and bone marrow of monkeys, rats, and mice were utilized. The assays are conventional measurements of the number of progenitors for erythrocytes, granulocytes, macrophages, platelets, and T-cells. The culture conditions included growth factors that would give near optimum growth for the particular lineage. These factors included II-3, PHA-lymphocyte conditioned medium, erythropoietin (EPO), II-6, and GM-CSF. The number of colonies developing in methylcellulose reflects the number of progenitor cells, and the percent increase is a measure of the effect of different polypeptides to increase colony number above the maximum obtained with the indicated known growth factors.
However, concentrations ranging from 10-500 ng/ml (approximately 3-150 nM) of both native MA and MAS1, MAS2, and MAS5 promoted an increase in colony number in a dose-dependent manner reaching a maximum of 60-80% increase at 30-150 nM (FIG. 9) for all hematopoietic progenitors. We observed similar results when the source of hematopoietic precursors were: human cord blood, rhesus macaque bone marrow, and rat and mouse bone marrow. Thus, like the anti-tumor and anti-viral results, the multi-lineage pro-hematopoietic effects of MA crosses several species. MA promotes CFU-GEMM FIG. 9, Panel A) which includes, precursors of granulocytes, red blood cells, and macrophages; BFU0e, (FIG. 9, Panel B) which are red blood cell precursors; CFU-GM (FIG. 9, Panel C) which include myeloid (granulocyte) and macrophage precursors; and T-CFC, (FIG. 9, Panel D) which are cells capable of forming colonies of T-cells. The latter is a less conventional assay, and details on the methods involved are described elsewhere.^178

[2] = Lethally irradiated rats and mice; settings: treated 24 and 48 hrs prior to radiation
Protocol: In order to determine in vivo relevance of the prohematopoietic effects of MA treated rats and mice under several conditions of bone marrow suppression. First, the effects of native MA and pMA and of the synthetic 15-mer MAS1 were treated for their capacity to reduce or prevent the effects of lethal doses of gamma irradiation. […] MA, pMA, MAS1, and various control polypeptides were given 48 and 24 hrs before, during, or 24 hrs after radiation. The animals treated prior to radiation received either 100 ng vs. 1 ug (rats) or 50 ng vs. 500 ng (mice) as 2 subcutaneous injections.
It is not yet possible to determine the precise molar dose of pMA because of less certainty on its full-length sequence.
To ascertain that the MA effect did promote hematopoiesis in these animals we examined the bone marrow for cellularity and colony formation and determined peripheral blood counts.

[3] = Summary of active and inactive peptides / overall biological activities
[4] = test system: human carcinoma and sarcoma cells (PC3, KS Y-1); test: Xenotransplanted human tumors in immunodeficient mice; format: in vivo; settings: controls at equivalent and higher molar concentrations
Protocol: In the first set of experiments, MA was tested against tumors formed by xenotransplantation of various human carcinoma and sarcoma cells in immunodeficient mice. […] […] The inhibitory effects were dose-dependent and found with both native and synthetic MA and pMA. At the dose range of 60-100 pmoles there was over 70% inhibition of tumor size. […] Three different synthetic forms of MA were used: full length (MAS3) and the previously described MAS1 and MAS2 (Panel C). […] However, whether this effect is direct, and in turn facilitates tumor destruction by diminished blood supply or is a consequence of primary tumor cell killing is not settled because a rapid induction of tumor cell apoptosis may prevent release of angiogenic factors such as VEGF.

human tumor cells = format: cell-based; settings: controls at equimolar or 5 to 10× greater concentrations
Protocol: The anti-tumor activities of MA were assessed in several in vitro and in vivo systems using published methods.^166 In vitro studies were with a wide variety of human tumor cell lines as well as short-term cultures of cells from biopsy samples obtained from tumors. The assays included effects of MA on colony formation, cell number and viability (trypan blue), and apoptosis. Four measures of microscopy were used. In vivo studies included the effects of MA on tumors induced in immunodeficient mice by xenotransplanted various human neoplastic cells, spontaneous neoplasms of immuno-competent mice and rats, and a few standard tumors in immuno-competent mice. Representative examples are presented.
Cells (5×10^5/ml) were seeded in modified Eagle's medium supplemented with 10% FCS, 10% conditioned medium form PHA stimulated human lymphocytes, 2 mM glutamine in 0.8% V/V methylcellulose with or without various treatments in a final volume of 1.0 ml. Then 0.1 ml aliquots were seeded in 96 well flat bottom microtest plates and incubated at 37° C. in 5% CO2 in air for 7 days. Aggregates containing 50 cells or more were scored as colonies.
5×10^5 cells were seeded in triplicate on 24 gelatin coated wells in conditions as described for Panel A and treated with the indicated test materials. After 3 days the cells were dislodged from their monolayers by gentle pipetting with cell dissociation buffer (Life Technologies), counted after trypan blue staining and aliquots examined for Annexin V staining by indirect IFA […].
Studies of the anti-tumor cell effects of MA were extended to other carcinomas, melanoma, some hematopoietic tumors, and carcinomas of the colon, prostate, breast, lung, brain, pancreas, and kidney-using cell lines from these tumors. […] Less than 30 nM native and synthetic MA, including the truncated forms, produced near maximum effects. Many more types of tumor cells were studied utilizing other assays (see below).

[5] = Lethal dose taxol in Sprague-Dawley rats; format: in vivo; settings: even at high doses
Protocol: Sprague-Dawley rats were given taxol in large lethal doses, 4.5 mg in one I.P. inoculation. This amount lead to bone marrow cytotoxicity, resultant blood cell deficiencies, and death of the rats in less than 5 days. Bone marrow suppression can also be a side effect of the clinical use of taxol.^179 As in the radiation experiments, either MA, pMA, MAS1, or various polypeptide controls were given subcutaneously only in two doses 24 and 48 hrs before taxol treatment or were given 3×/week for 4 weeks. […] Sixty-percent (low dose) or 80-90% (higher dose) of pretreated animals survived when given MA, MAS1, or pMA. In animals in which therapy was maintained 28 days with low (100 ng) or high (1000 ng) doses of MA, MAS1, or pMA, there was 100% survival on day 5 reducing to about 60% (low dose) and 80% (high dose) maintained at this level with the animals appearing healthy now at day 80, similar to the radiation experiments. Again, no effect was obtained with pure hCG, rβ-hCG, native glycosylated β-core, control peptides, or LH even at high doses, e.g., 5000 ng of native glycosylated (3-core. Like untreated animals, these rats were all dead before day 5.
Total lymphocytes (A), platelets (B), hemoglobin (C), and red cells (D) within a few days of receiving the one inoculation of the high dose MA or MAS1 show striking rise in number (blood counts were not performed on the pMA-treated animals). […]

Row | Substance | hematopoietic effects in vivo and in vitro [1] | effect on colony number (qualitative) ([1]; equimolar or higher concentrations) | day before which all animals died [2] [days] | biological activities in vitro or in vivo in the experimental systems described [3] | biological activities in vitro or in vivo in the experimental systems described ([3]; listed as pure hCG) | effect on xenotransplanted tumor (qualitative) [4] | inhibition of growth / induction of apoptosis of neoplastic cells (human tumor cells) | inhibition of growth / induction of apoptosis of neoplastic cells (human tumor cells; listed as pure hCG) | effect on survival (qualitative) [5]
1 | CR127: highly purified native hCG [reference compound] | None | no significant effect above background | < 5 | no activity | none of the observed activities | no effect | no inhibition of growth or induction of apoptosis | no effect | no effect
2 | recombinant hCG: recombinant hCG [reference compound] | – | – | – | – | – | – | no inhibition of growth or induction of apoptosis | – | –
3 | α-hCG: α-chain of hCG [reference compound] | None | – | – | no activity | – | no effect | no inhibition of growth or induction of apoptosis | – | –
